Tests used:
[1] = tested on: human neuroblastoma cells (GI-LI-N); assay: Orthotopic human neuroblastoma (GI-LI-N) xenografted mice; format: in vivo, mouse (human tumor xenograft)
[2] = tested on: human neuroblastoma cells (HTLA-230); assay: Pseudometastatic human neuroblastoma (HTLA-230) xenografted mice, survival; format: in vivo
Protocol: Xenografts were established in mice by injecting human neuroblastoma cells (HTLA-230) intravenously at zero time point.
Four-week-old female athymic nude (nu/nu) mice were purchased from Harlan Laboratories (Harlan Italy-S.Pietro al Natisone, UD). Eight mice/group were injected with the human NB cell line, HTLA-230 (3.5×10^6 cells in 200 μl of HEPES-buffered saline) in the tail vein (i.v.) on day 0. The mice were then randomly assigned to each test group (8 mice per group). […] Control group received HEPES-buffered saline. The mice were monitored routinely for weight loss. Survival times were used as the criteria for determining treatment efficacy.

[3] = tested on: Human neuroblastoma cells, SH-SY5Y; assay: SH-SY5Y xenografted mice, bioluminescence imaging; format: in vivo
Protocol: Human neuroblastoma cells, SH-SY5Y, were injected subcutaneously in the right flank of SCID mice at day 0. The SH-SY5Y cells were human neuroblastoma cells transfected with luciferase.
The luciferase-expressing neuroblastoma cells were visualized by bioluminescence imaging (BLI). Lateral images showing the site of tumor implantation were taken at day 0 (T0), and over time (T12-50). […] The BLI intensity increases as the BLI color grades from blue to red. Less luminescence meant less neuroblastoma cells in the mice. Antitumor effects were evaluated by changes in luminescence.

[4] = tested on: human neuroblastoma cells NXS2; assay: NXS2 xenografted mice, survival; format: in vivo; conditions: 10 mg/kg i.v. day 3, 5, 7, 9, 11
Protocol: Xenograft tumors were established in immunocompetent A/J mice by injecting […] neuroblastoma cells, NXS2, in the adrenal gland.
The immunocompetent mice were injected with another […] NB cell, NXS2 of 5×10^4 cells or 5×10^5 cells in the left adrenal gland. Tumors were allowed to grow for 2 days and reached the average volume of approximately 200 mm^3. […] Control group received HEPES-buffered saline. Survival time was used as the criteria for determining treatment efficacy.

^40k4arm-PEG-Gly(20)-(7-ethyl-10-hydroxycamptothecin) [Compound 9]
survival rate ([1]; GI-LI-N orthotopic (Example 27), 10 mg/kg i.v. day 21, 23, 25, 27, 29, 100 days after the tumor cell implantation): 100% | life span compared to the control mice or those treated with CPT-11 ([1]; GI-LI-N orthotopic (Example 27), 10 mg/kg q2d×5): significantly increased life span | life span compared to the control mice or those treated with CPT-11 ([1]; GI-LI-N orthotopic (Example 30), 10 mg/kg day 21, 23, 25, 27, 29): significantly increased life span | primary tumor growth (tumor size) ([1]; GI-LI-N orthotopic (Examples 27, 28), 10 mg/kg q2d×5): dramatic arrest and regression | histological examination, neuroblastoma marker (NB84, Ki-67) positive cells ([1]; GI-LI-N orthotopic, tumors removed at day 50): free or nearly free of neuroblastoma marker-positive cells | life span compared to the control mice or those treated with CPT-11 ([2]; HTLA-230, 10 mg/kg q2d×5, both 24 and 72 hours after cell injection): significantly increased life span | survival rate ([2]; HTLA-230 i.v. in nude mice, 10 mg/kg i.v. q2d×5 from 24 or 72 hours, 150 days after the cancer injection): 100% | antitumor effect, neuroblastoma cells quantified based on luminescence ([3]; SH-SY5Y s.c. in SCID mice, 10 mg/kg/dose every other day, 5 doses): Primary tumor regression | tumor cells by bioluminescence imaging ([3]; in vivo, sc, 10 mg/kg): very few tumor cells | mice survived ([4]; A/J mice challenged with 5×10^4 NXS2 tumor cells): 100% | mice survived ([4]; A/J mice challenged with 5×10^5 NXS2 tumor cells): about 40%

Source: US20100098654A1, “TREATMENT OF NEUROBLASTOMA WITH MULTI-ARM POLYMERIC CONJUGATES OF 7-ETHYL-10-HYDROXYCAMPTOTHECIN” (priority 2008, published 2010)
